Source: ChEMBL document CHEMBL4406811, “Optimization and Mechanistic Characterization of Pyridopyrimidine Inhibitors of Bacterial Biotin Carboxylase” (J Med Chem, 2019)

Test system: Escherichia coli
Experiment: Antibacterial activity against Escherichia coli DM4100 measured after 18 to 20 hrs in presence of permeabilizing agent PMBN by broth microdilution method
Type: functional

`NCC1(O)CCN(c2nc3nc(N)ncc3cc2-c2c(Cl)cccc2Cl)C1` (stereo unspecified) gave an MIC of 8 µg/mL.
